pKd: −log10 of the molar value.
Target: tomosyn (expressed in Sf9 cells) (UniProt Q9WU70)
Assay: far-Western, overlay or dot blot

Sequences of proteins named here, by UniProt entry; tags and fusion partners are left off. A change or cut given only in a name is not applied to a line headed by its entry.
UniProt Q9WU70: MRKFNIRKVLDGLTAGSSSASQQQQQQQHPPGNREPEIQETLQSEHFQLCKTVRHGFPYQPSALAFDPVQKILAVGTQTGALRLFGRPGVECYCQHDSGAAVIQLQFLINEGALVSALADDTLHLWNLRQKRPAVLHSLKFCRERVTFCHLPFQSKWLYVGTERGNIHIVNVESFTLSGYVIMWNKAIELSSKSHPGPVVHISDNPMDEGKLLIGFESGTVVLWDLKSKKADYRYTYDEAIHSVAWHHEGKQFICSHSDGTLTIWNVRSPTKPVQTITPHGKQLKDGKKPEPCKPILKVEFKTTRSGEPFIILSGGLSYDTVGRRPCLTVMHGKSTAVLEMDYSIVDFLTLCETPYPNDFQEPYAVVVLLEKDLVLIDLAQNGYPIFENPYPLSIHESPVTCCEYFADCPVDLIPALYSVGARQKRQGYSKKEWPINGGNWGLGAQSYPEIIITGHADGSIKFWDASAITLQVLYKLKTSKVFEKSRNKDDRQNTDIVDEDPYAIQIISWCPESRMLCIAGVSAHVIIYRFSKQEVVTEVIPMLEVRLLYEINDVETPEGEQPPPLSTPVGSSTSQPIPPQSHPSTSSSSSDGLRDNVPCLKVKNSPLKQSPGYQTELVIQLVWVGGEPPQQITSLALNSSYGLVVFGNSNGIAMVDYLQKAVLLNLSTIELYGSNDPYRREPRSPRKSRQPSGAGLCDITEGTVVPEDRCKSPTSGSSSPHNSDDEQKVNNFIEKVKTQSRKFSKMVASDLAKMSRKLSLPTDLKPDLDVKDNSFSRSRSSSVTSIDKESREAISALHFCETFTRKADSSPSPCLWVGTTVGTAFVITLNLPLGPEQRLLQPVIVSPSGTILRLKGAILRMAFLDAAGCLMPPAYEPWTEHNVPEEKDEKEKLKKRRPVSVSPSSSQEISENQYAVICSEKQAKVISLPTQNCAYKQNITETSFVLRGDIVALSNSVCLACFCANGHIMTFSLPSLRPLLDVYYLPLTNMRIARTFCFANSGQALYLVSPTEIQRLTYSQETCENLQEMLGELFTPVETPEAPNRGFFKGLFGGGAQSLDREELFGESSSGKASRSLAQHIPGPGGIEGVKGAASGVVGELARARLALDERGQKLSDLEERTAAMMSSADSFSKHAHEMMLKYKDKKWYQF

syntaxin-1, phosphorylated by ROCK (recombinant) (from UniProt P32851 1-288) (natural protein)
pKd: 8.00
